The record followed here is patent publication US8293729B2 (Boehringer Ingelheim International GmbH, priority 2009, dated 2012).

Amino acid sequences for entries named in this document (tags omitted). Chains listed by the source or under a name are the forms on record and can include a tag or linker. Residues count along the entry.
UniProt Q8TDV5, 2-335 with tags or gaps S329A/T327A limits assumed: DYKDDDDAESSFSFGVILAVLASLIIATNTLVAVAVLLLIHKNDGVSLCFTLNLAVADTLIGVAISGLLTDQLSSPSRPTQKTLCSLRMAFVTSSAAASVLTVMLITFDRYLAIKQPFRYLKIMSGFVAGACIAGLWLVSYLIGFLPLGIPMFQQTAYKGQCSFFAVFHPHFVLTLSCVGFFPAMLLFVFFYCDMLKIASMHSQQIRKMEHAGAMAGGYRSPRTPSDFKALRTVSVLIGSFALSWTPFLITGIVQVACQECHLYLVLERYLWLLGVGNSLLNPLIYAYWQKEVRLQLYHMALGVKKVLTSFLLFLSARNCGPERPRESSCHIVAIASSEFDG

A value given as a limit tells only on which side of the number the result lay.

In the experiment the target is human GPR119 receptor (Homo sapiens, UniProt Q8TDV5, S329A/T327A). The experiment can be described thus: cAMP assay (LANCE cAMP-384) in HEK293 cells stably expressing mutant human GPR119 receptor. As for the experimental part:
Quantitative detection of cAMP accumulation from cells expressing human GPR119 receptor was achieved using Perkin Elmer's LANCE cAMP-384 Kit (Cat#AD0264) according to the manufacturer's protocol. Briefly, HEK293 cells stably expressing a mutant form of the human GPR119 receptor (Methionine 1 replaced with the amino acid sequence […] (SEQ ID NO: 1), and T327 & S329 changed to alanines) were grown to 50-70% confluency in cell culture media (DMEM, 10% heat inactivated Fetal Bovine Serum, 50 I.U./mL penicillin, 50 μg/mL streptomycin, 10 mM HEPES, 20 μg/mL G418 Sulfate). On the day of the assay, GPR119 stable HEK293 cells were lifted from the tissue culture plate and 1000 cells/well were incubated along with various concentrations of test compounds for 20 min at 37° C. Detection Buffer (50mM HEPES, 10mM calcium chloride, 0.35% Triton X-100, 1 mg/mL BSA) containing cAMP-specific antibody was then added to all wells and allowed to equilibrate in the dark for 10 minutes at room temperature. Upon equilibration, Detection Buffer containing europium-labeled cAMP tracer complex was added to all wells and allowed to react for 1 hour at room temperature. After 1 hour, bound europium-labeled cAMP tracer was measured using a Perkin Elmer ViewLux. The quantity of cAMP generated in each well was derived from a standard curve. EC50 was determined using nonlinear regression analysis of the cAMP values over a range of agonist concentration (12 points spanning the range from 30 μM to 100pM).
For some compounds for which no EC50 value could be determined, the efficacy is provided at a single concentration (10 μM) yielding % stimulation values.

Setting [1] is: the 35th table, compounds 65-25 to 65-36.
Setting [2] is: cAMP accumulation, HEK293 cells stably expressing mutant human GPR119.
[3] abbreviates: cAMP accumulation, HEK293 cells expressing mutant human GPR119, column head prints no unit.
[4] abbreviates: the 34th table, compounds 65-1 to 65-24, tested form: TFA.

Turning to `CS(=O)(=O)c1cc(F)c(N2CCC(=NOC3CCN(C(=O)c4ccc(Cl)cc4)CC3)CC2)cc1F`, under setting [1], the half-maximal effective concentration (EC50) was found to be 0.302 µM.
`COc1ncc(-c2cc(F)c(N3CCC(=NOC4CCN(C(=O)OC(C)C)CC4)CC3)cc2F)cn1`: under setting [2], the concentration giving a half-maximal response (EC50) came out at 0.736 µM.
Where the note is “the 32nd table”, `Cc1ccnc(N2CCC(ON=C3CCN(c4ccc(S(C)(=O)=O)cc4F)CC3)CC2)c1` had a concentration for a half-maximal effect (EC50) of 1.76 µM.
Under setting [3], `CCN(CC)CCCC(C)NC(=O)c1cc(F)c(N2CCC(=NOC3CCN(C(=O)c4ccc(Cl)cc4)CC3)CC2)cc1F` (centres unmarked) came in with an EC50 of 0.039 µM.
As to `CS(=O)(=O)c1ccc(N2CCC(=NOC3CCN(C(=O)C4CCCC4)CC3)CC2)c(F)c1`, under setting [4], the EC50 was found to be 0.039 µM. In other words, the double-digit nanomolar range.
`CC(C)OC(=O)N1CCC(ON=C2CCN(c3ncc(S(C)(=O)=O)c(N(C)C)n3)CC2)CC1` had an EC50 under setting [2] of 0.799 µM. That is a sub-micromolar value.
As to `CS(=O)(=O)c1ccc(N2CCC(=NOC3CCN(C(=O)CC4CCCC4)CC3)CC2)c(F)c1`, under setting [4], the EC50 came out at 0.088 µM.
As to `COc1nc(N2CCC(=NOC3CCN(C(=O)OC(C)C)CC3)CC2)ncc1S(C)(=O)=O`, the EC50 under setting [2] stood at 0.296 µM.
For `CCOC(=O)N(C)Cc1cc(F)c(N2CCC(=NOC3CCN(C(=O)OC(C)C)CC3)CC2)cc1F`, the EC50 under setting [2] is 0.304 µM.
`CS(=O)(=O)c1ccc(N2CCC(=NOC3CCN(C(=O)c4ccc(Cl)cc4)CC3)CC2)c(F)c1` yielded an EC50 under setting [4] of 0.055 µM.
For `CC(C)OC(=O)N1CCC(ON=C2CCN(c3ncc([S+](C)[O-])c(N(C)C)n3)CC2)CC1` (centres unmarked), the concentration for a half-maximal effect (EC50) under setting [2] was above 10 µM.
`CCCCC(=O)N1CCC(ON=C2CCN(c3cc(F)c(S(C)(=O)=O)cc3F)CC2)CC1` registered a concentration for a half-maximal effect (EC50) under setting [1] of 0.112 µM.
Take `CCc1ccc(CN2CCC(ON=C3CCN(c4cc(F)c(C(=O)NCC5COCCN5)cc4F)CC3)CC2)cc1` (centres unmarked): the concentration giving a half-maximal response (EC50) under setting [3] was 0.624 µM. That is a sub-micromolar value.
Turning to `CCCC(=O)N1CCC(ON=C2CCN(c3cc(F)c(S(C)(=O)=O)cc3F)CC2)CC1`, the concentration giving a half-maximal response (EC50) under setting [1] was determined as 0.273 µM. In other words, the sub-micromolar range.
